## Yeast mating assay B: variants of the scFv Ab-14

Target peptide (SARS-CoV-2 spike, HR2 region): PDVDLGDISGINAS

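Phage display of a naive human antibody library on the peptide gave the parent. The variants were designed computationally from a first round of random CDR variants and then made and measured. Several design methods are mixed in this list. AlphaSeq pools MATa yeast showing the antibodies with MATalpha yeast showing the peptide. Binding brings cells together so that they mate, and sequencing counts the barcode pairs among the diploids. Scores were corrected for input abundance and mapped to Kd with protein pairs of known affinity run in the same pool. Mating was done six times.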

Each scFv is VH, three GGGGS repeats, VL, as in the parent Ab-14, and differs from it in the CDRs of the light chain only.
VH: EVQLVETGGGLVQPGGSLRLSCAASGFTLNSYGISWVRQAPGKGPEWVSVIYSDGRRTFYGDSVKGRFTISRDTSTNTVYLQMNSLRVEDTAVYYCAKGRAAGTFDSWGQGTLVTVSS
VL: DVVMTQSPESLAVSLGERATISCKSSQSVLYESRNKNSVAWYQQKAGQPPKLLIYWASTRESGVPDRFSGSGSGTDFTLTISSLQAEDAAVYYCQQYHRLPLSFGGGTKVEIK

Variants are written as CDR1, CDR2 and CDR3 of the light chain (limits as in the source). Parent: KSSQSVLYESRNKNSVA, WASTRES, QQYHRLPLS.
This list holds designs with more than six substitutions.
Numbers give log10(Kd / nM), so 0 is 1 nM and 3 is 1 µM. Smaller is tighter.
The mean shown is taken over the replicates in which the pair was detected.
"nd" means that the variant was in the library but no mating with the target was seen in any replicate; the authors take this as a sign of poor binding, and no number exists.
Empty control strains, which show no peptide, gave a signal in 4% of pairings with all light chain designs; the median was 2.64 and 95% of these signals were weaker than 1.59. No background was subtracted. The control count says in how many pairings with the empty strains this scFv gave a signal.
The parent sequence was in this pool as ten entries: three were never detected, three once, and four in most replicates, with averages from 0.34 to 2.37.
In the paper, a design with two or fewer of six values counts as a poor binder.
Values of this round are not directly comparable with the first-round values of the same sequences.

For KLTMITGTEKVKGNNVA | EMETRER | QQYNRLPLA, the assay gave 0.46 (6 of 6 replicates; controls 0 of 18). For HISSMDMHDGGIIHNVA | DTGVTSR | QQYSRLPLI, the assay gave 0.64 (6 of 6 replicates; controls 0 of 18). Variant KIGMTLNQMMHKKNNVA | DLVTREN | QQYFRLPLS showed 0.37 (6 of 6 replicates; controls 0 of 18). With HITLGMYVAGRHSHSIA | QAETREK | QQYDRLPLI the result was 1.43 (2 of 6 replicates; controls 0 of 18). With ALGDVTRMESLKKNSIA | DMSTRES | QQYHRLPLS the result was -0.22 (6 of 6 replicates; controls 1 of 18). For KLSWTCTGDLNQMHSVA | ESTVAVD | QQYAHLPLT, the assay gave 0.20 (6 of 6 replicates; controls 3 of 18).

With KVSQSVLQGDRNKSSVA | QASTREM | QQYHRLPLS the result was 1.25 (6 of 6 replicates; controls 0 of 18). For RFTEHLLMLENKIYAIA | NATKTME | QQYFRLPFV, the assay gave 0.68 (6 of 6 replicates; controls 2 of 18). With KLYQSMGYLSRNANSIA | DMSRREN | QQYHRLPLS the result was -0.11 (6 of 6 replicates; controls 0 of 18). For KFSQMSNMFSVSMNAVA | EMSTRED | QQYNRLPLA, the assay gave 0.97 (6 of 6 replicates; controls 1 of 18). Variant KFHMGHEAGQRKHDNVA | EANLRPS | QQYNRLPII gave 0.71 (6 of 6 replicates; controls 2 of 18). With KLDMNELGQSQNSNCVA | SSAQKCS | QQYSRLPLS the result was 1.18 (6 of 6 replicates; controls 2 of 18).

Variant TISGVMQQMSHSKSNVA | EVSTRLD | QQYVRLPLE showed 0.69 (5 of 6 replicates; controls 0 of 18). Variant SLMQVGGYESNNKDSIA | DLRTRES | QQYHRLPLS gave 0.22 (6 of 6 replicates; controls 0 of 18). With HLSQSVDYESRQKNSVA | NAQTRMS | QQYHRLPLS the result was 0.30 (6 of 6 replicates; controls 3 of 18). Variant MLSQMWALGMKVKNSVA | QASTRFN | QQYERLPLI showed 1.18 (6 of 6 replicates; controls 0 of 18). With LLQQSEGYESRNKNSVA | DASTREE | QAYHRLPLS the result was 0.12 (6 of 6 replicates; controls 0 of 18). For NMKVGLNFEDIQHQAIA | EVEKRES | QQYARLPLT, the assay gave 0.79 (6 of 6 replicates; controls 3 of 18).

Variant KVSEFMKGLMMRTDSIA | DNETRNS | QQYDRLPLS gave 1.82 (6 of 6 replicates; controls 1 of 18). With MISQLYNMGTFAINSVA | QASLRNE | QQYDRLPLA the result was nd (0 of 6 replicates; controls 0 of 18). Variant KCPQSVWQEERQKNSVA | NASQREQ | QQYHRLPLS showed 0.91 (6 of 6 replicates; controls 0 of 18). For HLGLSTMLEEYVRNSVA | NNSTREE | QQYDRLPLS, the assay gave 2.14 (3 of 6 replicates; controls 0 of 18). Variant KVSGSQLYEERNSNSVA | NASNRES | QQYHRLPLS showed -0.15 (6 of 6 replicates; controls 0 of 18). For NMTEQVFNGSRNKYNIA | AEVKRVY | QQYQRLPLM, the assay gave 2.16 (6 of 6 replicates; controls 1 of 18).

Variant KLSQSVEQEERNKNSVA | HASVRLV | QQYHRLPLS showed 0.20 (6 of 6 replicates; controls 1 of 18). With KLRQSTHIESFNKNNVA | EMTTREY | QSYDRLPLS the result was 1.18 (6 of 6 replicates; controls 2 of 18). For KISQMVNFESGHINAVA | QMSTREE | QQYFRLPLS, the assay gave 0.85 (5 of 6 replicates; controls 0 of 18). Variant HITMGMYVSGRHHSNIA | QAETRAK | QQYDRLPLI showed 0.99 (6 of 6 replicates; controls 1 of 18). For ILSQMMLAAGNKHSSVA | QANNRED | QQYHRLPLS, the assay gave 1.05 (6 of 6 replicates; controls 0 of 18). Variant NLQNIGSELSVWKRNIA | DANIRES | QQYFRLPLL showed -0.05 (6 of 6 replicates; controls 1 of 18).

With MFSQLMEYGSRFKNSVA | QASTRED | QQYHWLPLS the result was 1.67 (6 of 6 replicates; controls 1 of 18). Variant KVQMKNLYEDRMKNSVA | NASLRES | QQYHRLPLS showed 0.25 (6 of 6 replicates; controls 5 of 18). For MLSQMWALGMKVSNSVA | QASMRFN | QQYERLPLI, the assay gave 0.68 (6 of 6 replicates; controls 0 of 18). For KLSMLWPMLSRNHNSVA | SASTRES | QQYHRLPLS, the assay gave 0.80 (6 of 6 replicates; controls 1 of 18). Variant IISGSMLMESKHKNSVA | NAETREY | QHYDRLPLS gave 1.93 (6 of 6 replicates; controls 1 of 18). Variant QVAAIHEHEKDQNQAMA | EASMRDA | QQYERLPLS gave 1.18 (6 of 6 replicates; controls 0 of 18).

With HMSALTMLGMRQKNSVA | QMTTREN | QQYDRLPLV the result was 0.69 (6 of 6 replicates; controls 1 of 18). Variant MIAESVGYQSRNKNSVA | DNSTREN | QCYDRLPLS showed 2.13 (6 of 6 replicates; controls 3 of 18). Variant YLDSGDVDGQKSKESIA | DADHSGA | QQYARLPLG gave 1.45 (2 of 6 replicates; controls 0 of 18). Variant NISTQIPEFKMWDNNIA | GATLRPT | QDYARLPLS gave 0.71 (6 of 6 replicates; controls 0 of 18). With SLSHGSEGSKNEEASIA | STELGMA | QQYARLPLA the result was 2.34 (1 of 6 replicates; controls 0 of 18). With KLSFGNLYESRNQNSVA | KASTRLQ | QQYHRLPLS the result was 0.26 (6 of 6 replicates; controls 0 of 18).

With QIAGLLNFESTKTNNVA | QMETRVN | QQYDRLPLS the result was 0.65 (6 of 6 replicates; controls 0 of 18). Variant SLSESEREEFSHEQNIA | DGTEHMR | QQYFQLPLL showed 0.96 (6 of 6 replicates; controls 0 of 18). For KLRQVTGYESYAKNSVA | QTSTRAS | QDYHRLPLS, the assay gave 0.96 (6 of 6 replicates; controls 1 of 18). For NFSQMVLTGSTLKNSVA | HASTRNE | QQYHRLPLI, the assay gave 0.91 (6 of 6 replicates; controls 0 of 18).

Picked from the list: the 7 lowest averages where every replicate gave a value.

{"CDR-L1": "ALGDVTRMESLKKNSIA", "CDR-L2": "DMSTRES", "CDR-L3": "QQYHRLPLS", "log10 Kd (nM), mean": "-0.22", "detected": "6/6", "control signals": "1/18"}
{"CDR-L1": "KVSGSQLYEERNSNSVA", "CDR-L2": "NASNRES", "CDR-L3": "QQYHRLPLS", "log10 Kd (nM), mean": "-0.15", "detected": "6/6", "control signals": "0/18"}
{"CDR-L1": "KLYQSMGYLSRNANSIA", "CDR-L2": "DMSRREN", "CDR-L3": "QQYHRLPLS", "log10 Kd (nM), mean": "-0.11", "detected": "6/6", "control signals": "0/18"}
{"CDR-L1": "NLQNIGSELSVWKRNIA", "CDR-L2": "DANIRES", "CDR-L3": "QQYFRLPLL", "log10 Kd (nM), mean": "-0.05", "detected": "6/6", "control signals": "1/18"}
{"CDR-L1": "LLQQSEGYESRNKNSVA", "CDR-L2": "DASTREE", "CDR-L3": "QAYHRLPLS", "log10 Kd (nM), mean": "0.12", "detected": "6/6", "control signals": "0/18"}
{"CDR-L1": "KLSQSVEQEERNKNSVA", "CDR-L2": "HASVRLV", "CDR-L3": "QQYHRLPLS", "log10 Kd (nM), mean": "0.20", "detected": "6/6", "control signals": "1/18"}
{"CDR-L1": "KLSWTCTGDLNQMHSVA", "CDR-L2": "ESTVAVD", "CDR-L3": "QQYAHLPLT", "log10 Kd (nM), mean": "0.20", "detected": "6/6", "control signals": "3/18"}

From the AlphaSeq antibody data of Li et al. 2023 (doi:10.1038/s41467-023-39022-2), copy in the FLAb collection.